{"source": "paper PMC7723054", "binders": {"B1": {"name": "hsa-mir-920 (structured_RNA)", "RNA": "GGGAGGCAAGAGGAACGUCUAUGCGGUCGGUGUACGAAGUUUCAGCGACCUGGAUGUGUAGGAGCUAAGACACACUCCAGGGGGCUGAAGCUUCGUGCAC"}, "B2": {"name": "hsa-mir-4700 (structured_RNA)", "RNA": "GGGACAAUACCACCAUGCGAUUCCUAAGGGUGUACGAAGUUUCAGCGUGUCCUGAAAUUCACAGGACUGGCUGAAGCUUCGUGCAC"}, "B3": {"name": "hsa-mir-1825 (structured_RNA)", "RNA": "GGGAAUUCAUAAAGAUAGGUGCAGUCGGGGUGUACGAAGUUUCAGCUGGGCUCCCCUAGACUAGGACUCCAGCUGAAGCUUCGUGCAC"}, "B4": {"name": "hsa-mir-6775 (structured_RNA)", "RNA": "GGGACGGGAACUUAGCUUUUCGACGCCCGGUGUACGAAGUUUCAGCGGCUGGACAGGAGAGGGCUCACCCAGGGCUGAAGCUUCGUGCAC"}, "B5": {"name": "hsa-mir-520f (structured_RNA)", "RNA": "GGGAAAUGCCAGCCAUGCUGCGGAUAUCGGUGUACGAAGUUUCAGCGCUUUCUGUGGUCAGAAAGAAAAGCAAGUGCUGAAGCUUCGUGCAC"}, "B6": {"name": "hsa-mir-3944 (structured_RNA)", "RNA": "GGGAAGUUUUGUCGGAACCCACUGCGCUGGUGUACGAAGUUUCAGCCGAGAAGCGCCUGCGUCUCCCAUUUUCGGCUGAAGCUUCGUGCAC"}, "B7": {"name": "hsa-mir-5009 (structured_RNA)", "RNA": "GGGAAUCACAUCACGGUGAAGAGUUAUUGGUGUACGAAGUUUCAGCGGGAUAUUUGCAUUAUACUUAUCCGCUGAAGCUUCGUGCAC"}, "B8": {"name": "hsa-mir-3679 (structured_RNA)", "RNA": "GGGACAGCGUCGCAUGUACCAGAAUCAAGGUGUACGAAGUUUCAGCGAAGGGGAGUUUCCCUCUAUUCCCUUCGCUGAAGCUUCGUGCAC"}, "B9": {"name": "hsa-mir-6809 (structured_RNA)", "RNA": "GGGAACCACGUUGACCCGGUAUGAAAUCGGUGUACGAAGUUUCAGCGGAUCAUGUUUGCCCCCGUGGACAGCUCUCUGGUGUGCUCCUCCUGCCAUCCUGCCCACCCCUGCAUAAUGCUGCUUCGCUGAAGCUUCGUGCAC"}, "B10": {"name": "hsa-mir-3157 (structured_RNA)", "RNA": "GGGAUUAAUGAACGGGUCGUCCGCAACGGGUGUACGAAGUUUCAGCGCAGUCUGCUUUGUGCCAACACUGGGGUGAUGACUGCGCUGAAGCUUCGUGCAC"}, "B11": {"name": "hsa-mir-429 (structured_RNA)", "RNA": "GGGAAAGGAGGCGCGUCUAAUAAAGAAAGGUGUACGAAGUUUCAGCGUUAGACCUGGCCCUCUGUCUAAUGCUGAAGCUUCGUGCAC"}}, "note": "This is one part of the list."}
{"biological_target": "U1A (Homo sapiens, UniProt P09012)", "experiment": "FOREST: bead pull-down of RNA structure library v1, barcode microarray; U1A/LIN28A: 20 mM HEPES pH 7.5, 80 mM KCl, 20 mM NaCl, 10% glycerol, 2 mM DTT, 0.1 ug/uL BSA, 4 C; BG4/CIRBP/DHX36: 10 mM Tris-HCl pH 7.5, 100 mM KCl (or LiCl),; high values mean tight binding", "units": {"binding signal": "z-score"}}
{"binder": "B1", "binding signal": 0.473}
{"binder": "B2", "binding signal": 0.462}
{"binder": "B3", "binding signal": 0.497}
{"binder": "B4", "binding signal": 0.51}
{"binder": "B5", "binding signal": 0.457}
{"binder": "B6", "binding signal": 0.505}
{"binder": "B7", "binding signal": 0.49}
{"binder": "B8", "binding signal": 0.505}
{"binder": "B9", "binding signal": 0.516}
{"binder": "B10", "binding signal": 2.12}
{"binder": "B11", "binding signal": 0.501}
{"biological_target": "T1, LIN28A (human?, UniProt Q9H9Z2 1-209)", "T1 sequence": "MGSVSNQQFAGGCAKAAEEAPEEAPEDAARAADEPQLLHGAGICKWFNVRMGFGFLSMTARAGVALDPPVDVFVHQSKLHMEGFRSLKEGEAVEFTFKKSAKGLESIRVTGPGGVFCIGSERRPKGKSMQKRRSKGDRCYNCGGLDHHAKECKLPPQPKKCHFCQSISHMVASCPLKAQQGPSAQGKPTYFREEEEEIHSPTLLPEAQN", "experiment": "FOREST: bead pull-down of RNA structure library v1, barcode microarray; U1A/LIN28A: 20 mM HEPES pH 7.5, 80 mM KCl, 20 mM NaCl, 10% glycerol, 2 mM DTT, 0.1 ug/uL BSA, 4 C; BG4/CIRBP/DHX36: 10 mM Tris-HCl pH 7.5, 100 mM KCl (or LiCl),; high values mean tight binding", "units": {"binding signal": "z-score"}}
{"binder": "B1", "binding signal": 0.785}
{"binder": "B2", "binding signal": -0.318}
{"binder": "B3", "binding signal": -0.132}
{"binder": "B4", "binding signal": 0.606}
{"binder": "B5", "binding signal": 0.336}
{"binder": "B6", "binding signal": -0.411}
{"binder": "B7", "binding signal": 2.28}
{"binder": "B8", "binding signal": -0.325}
{"binder": "B9", "binding signal": -0.0398}
{"binder": "B10", "binding signal": 0.284}
{"binder": "B11", "binding signal": 0.511}
{"biological_target": "T2, CIRBP (Homo sapiens, UniProt Q14011 1-172)", "T2 sequence": "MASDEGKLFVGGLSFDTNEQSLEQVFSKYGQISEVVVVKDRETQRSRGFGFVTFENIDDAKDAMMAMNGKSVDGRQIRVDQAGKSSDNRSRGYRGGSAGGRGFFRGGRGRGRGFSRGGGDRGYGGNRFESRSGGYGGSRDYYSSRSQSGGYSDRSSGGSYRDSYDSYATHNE", "experiment": "FOREST: bead pull-down of RNA structure library v1, barcode microarray; U1A/LIN28A: 20 mM HEPES pH 7.5, 80 mM KCl, 20 mM NaCl, 10% glycerol, 2 mM DTT, 0.1 ug/uL BSA, 4 C; BG4/CIRBP/DHX36: 10 mM Tris-HCl pH 7.5, 100 mM KCl (or LiCl),; high values mean tight binding", "units": {"binding signal": "z-score"}}
{"binder": "B1", "binding signal": 0.86}
{"binder": "B2", "binding signal": 0.388}
{"binder": "B3", "binding signal": -0.322}
{"binder": "B4", "binding signal": -0.79}
{"binder": "B5", "binding signal": 1.35}
{"binder": "B6", "binding signal": 0.324}
{"binder": "B7", "binding signal": 2.32}
{"binder": "B8", "binding signal": -0.493}
{"binder": "B9", "binding signal": -0.91}
{"binder": "B10", "binding signal": -0.352}
{"binder": "B11", "binding signal": 1.18}
{"biological_target": "T3, DHX36 (Homo sapiens, UniProt Q9H2U1 1-1008)", "T3 sequence": "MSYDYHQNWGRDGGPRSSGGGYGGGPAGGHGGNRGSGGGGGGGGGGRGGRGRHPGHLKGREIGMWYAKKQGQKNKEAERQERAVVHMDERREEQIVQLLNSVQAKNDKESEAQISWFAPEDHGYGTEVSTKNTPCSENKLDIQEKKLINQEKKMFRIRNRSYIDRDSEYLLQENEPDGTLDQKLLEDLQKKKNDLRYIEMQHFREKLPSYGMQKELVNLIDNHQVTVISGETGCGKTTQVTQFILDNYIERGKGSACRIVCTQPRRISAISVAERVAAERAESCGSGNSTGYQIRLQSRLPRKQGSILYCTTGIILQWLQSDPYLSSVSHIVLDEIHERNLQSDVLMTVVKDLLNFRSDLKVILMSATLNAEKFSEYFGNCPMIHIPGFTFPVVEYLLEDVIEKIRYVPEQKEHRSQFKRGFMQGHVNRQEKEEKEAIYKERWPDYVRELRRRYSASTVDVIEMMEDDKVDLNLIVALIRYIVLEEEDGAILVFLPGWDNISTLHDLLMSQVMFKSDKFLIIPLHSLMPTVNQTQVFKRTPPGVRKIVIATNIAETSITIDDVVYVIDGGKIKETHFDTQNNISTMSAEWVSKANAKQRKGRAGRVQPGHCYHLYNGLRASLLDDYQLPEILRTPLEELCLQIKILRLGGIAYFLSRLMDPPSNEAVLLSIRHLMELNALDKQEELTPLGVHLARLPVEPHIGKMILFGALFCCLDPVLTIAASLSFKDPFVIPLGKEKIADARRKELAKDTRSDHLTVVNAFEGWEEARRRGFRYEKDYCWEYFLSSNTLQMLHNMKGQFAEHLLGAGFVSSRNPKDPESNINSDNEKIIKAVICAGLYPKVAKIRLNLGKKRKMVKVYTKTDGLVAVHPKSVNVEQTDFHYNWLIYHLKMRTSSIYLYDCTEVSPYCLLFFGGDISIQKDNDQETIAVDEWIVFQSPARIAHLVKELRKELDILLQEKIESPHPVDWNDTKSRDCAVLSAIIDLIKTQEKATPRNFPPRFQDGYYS", "experiment": "FOREST: bead pull-down of RNA structure library v1, barcode microarray; U1A/LIN28A: 20 mM HEPES pH 7.5, 80 mM KCl, 20 mM NaCl, 10% glycerol, 2 mM DTT, 0.1 ug/uL BSA, 4 C; BG4/CIRBP/DHX36: 10 mM Tris-HCl pH 7.5, 100 mM KCl (or LiCl),; high values mean tight binding", "units": {"binding signal": "z-score"}}
{"binder": "B1", "binding signal": 1.08}
{"binder": "B2", "binding signal": -0.764}
{"binder": "B3", "binding signal": 0.0117}
{"binder": "B4", "binding signal": 1.98}
{"binder": "B5", "binding signal": 0.364}
{"binder": "B6", "binding signal": 0.251}
{"binder": "B7", "binding signal": 0.212}
{"binder": "B8", "binding signal": -0.0906}
{"binder": "B9", "binding signal": 0.431}
{"binder": "B10", "binding signal": 0.341}
{"binder": "B11", "binding signal": 2.69}
